{"source": "patent US20250230193A1", "about": "“CYCLIC COMPOUND HAVING SELECTIVE KRAS INHIBITORY EFFECT ON HRAS AND NRAS” (CHUGAI SEIYAKU KABUSHIKI KAISHA, priority 2022, published 2025)", "key": {"[1]": {"molecular_target": "GDP-bound HRAS wild-type protein (Homo sapiens, UniProt P01112)", "experiment": "Binding to HRAS by surface plasmon resonance (SPR), Single Cycle Kinetics"}, "[2]": {"molecular_target": "GDP-bound NRAS wild-type protein (Homo sapiens, UniProt P01111)", "experiment": "Binding to NRAS by surface plasmon resonance (SPR), Single Cycle Kinetics"}, "[3]": {"system": "human lung cancer strain NCI-H441", "conditions": "read-out: NCI-H441 IC50; NCI-H441 cells, 4 days, CellTiter-Glo"}}}
{"molecule": "CCO[C@@H]1C[C@H]2C(=O)NC3(CCC3)C(=O)N(C)[C@@H](C3CCCC3)C(=O)N(C)[C@H](C(=O)N(C)C)CC(=O)N(C)[C@@H](CC(C)C)C(=O)N[C@@H]([C@@H](C)CC)C(=O)N(C)CC(=O)N(C)[C@H]3CC(C)=C(C)CN(C3=O)[C@@H](Cc3ccc(C(F)(F)F)cc3)C(=O)N(C)CC(=O)N[C@@H](CCc3cc(F)c(C(F)(F)F)c(F)c3)C(=O)N2C1", "note": "[PP1046]", "values": [{"measurement": "HRAS/KRAS (ratio of KD value with respect to HRAS to KD value with respect to KRAS)", "setting": "[1]; KD ratio, GDP-bound HRAS wild-type vs GDP-bound KRAS wild-type", "value": "C (A compound having a KD ratio of 0.1 or more and less than 3 is denoted as C)"}, {"measurement": "NRAS/KRAS (ratio of KD value with respect to NRAS to KD value with respect to KRAS)", "setting": "[2]; KD ratio, GDP-bound NRAS wild-type vs GDP-bound KRAS wild-type", "value": "C (A compound having a KD ratio of 0.1 or more and less than 3 is denoted as C)"}, {"measurement": "IC50", "setting": "[3]", "value": 109, "unit": "nM"}]}
{"molecule": "CCO[C@@H]1C[C@H]2C(=O)NC3(CCC3)C(=O)N(C)[C@@H](C3CCCC3)C(=O)N(C)[C@H](C(=O)N(CC)CC)CC(=O)N(C)[C@@H](CC3CC3)C(=O)N[C@@H]([C@@H](C)CC)C(=O)N(C)CC(=O)N(C)[C@H]3C/C=C\\CCN(C3=O)[C@@H](Cc3ccc(C(F)(F)F)cc3)C(=O)N(C)CC(=O)N[C@@H](CCc3cc(F)c(C(F)(F)F)c(F)c3)C(=O)N2C1", "note": "[PP1307]", "values": [{"measurement": "HRAS/KRAS (ratio of KD value for GDP-bound HRAS wild-type protein to KD value for KRAS)", "setting": "[1]; KD ratio class", "value": "A (a compound having 10 or more and less than 20 is denoted as A)"}, {"measurement": "NRAS/KRAS (ratio of KD value for GDP-bound NRAS wild-type protein to KD value for KRAS)", "setting": "[2]; KD ratio class", "value": "A (a compound having 10 or more and less than 20 is denoted as A)"}]}
{"molecule": "CC[C@H](C)[C@@H]1NC(=O)[C@H](COC)N(C)C(=O)C[C@@H](C(=O)N(C)CC)N(C)C(=O)[C@H](C2CCCC2)N(C)C(=O)C2(CC(C)(C)C2)NC(=O)[C@@H]2C[C@H](C)CN2C(=O)[C@H](CCc2ccc(C(F)(F)F)c(OC)c2)NC(=O)CN(C)C(=O)[C@H](Cc2ccc(C)cc2)N2CC/C=C\\C[C@@H](C2=O)N(C)C(=O)CN(C)C1=O", "note": "[PP2504]", "values": [{"measurement": "IC50", "setting": "[3]", "value": 12.9, "unit": "nM"}]}
{"molecule": "CCC[C@H]1C(=O)N[C@@H]([C@@H](C)CC)C(=O)N(C)CC(=O)N(C)[C@H]2C/C=C\\CCN(C2=O)[C@@H](Cc2ccc(C)cc2)C(=O)N(C)CC(=O)N[C@@H](CCc2cc(F)c(C(F)(F)F)c(F)c2)C(=O)N2CC3(CC3)C[C@H]2C(=O)NC2(CC(C)(C)C2)C(=O)N(C)[C@@H](CC(C)C)C(=O)N(C)[C@H](C(=O)N(C)C)CC(=O)N1C", "note": "[PP3004]", "values": [{"measurement": "HRAS/KRAS (ratio of KD value with respect to GDP-bound HRAS wild-type protein to KD value with respect to KRAS)", "setting": "[1]; KD ratio HRAS/KRAS, GDP-bound wild-type proteins", "value": "A (a compound having 10 or more and less than 20 is denoted as A)"}, {"measurement": "NRAS/KRAS (ratio of KD value with respect to GDP-bound NRAS wild-type protein to KD value with respect to KRAS)", "setting": "[2]; KD ratio NRAS/KRAS, GDP-bound wild-type proteins", "value": "A (a compound having 10 or more and less than 20 is denoted as A)"}, {"measurement": "IC50", "setting": "[3]", "value": 19.2, "unit": "nM"}]}
